# Antibody variant affinities, Ab-91 heavy chain, assay 2

Binding partner: SARS-CoV-2 spike HR2 peptide, sequence PDVDLGDISGINAS.

Parent scFv Ab-91: VL joined to VH by a 15-residue (Gly4Ser)3 linker. Changes lie in the heavy chain CDRs alone.
VL: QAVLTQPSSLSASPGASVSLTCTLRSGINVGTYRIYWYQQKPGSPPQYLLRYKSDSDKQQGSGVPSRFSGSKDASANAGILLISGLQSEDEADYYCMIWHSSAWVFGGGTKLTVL
VH: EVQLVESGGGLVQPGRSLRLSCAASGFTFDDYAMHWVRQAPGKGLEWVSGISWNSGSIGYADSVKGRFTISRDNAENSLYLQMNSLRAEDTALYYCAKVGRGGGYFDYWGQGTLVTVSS

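The parent was found by panning a naive human phage display library on the peptide. The library (AAYL51) carries one to three amino acid substitutions per variant, with no insertions or deletions. AlphaSeq pools MATa yeast showing the antibodies with MATalpha yeast showing the peptide. Pairs that bind mate more often; barcode pairs of the diploids are counted by sequencing. Each replicate has its own calibration line, from reference interactions of the BCL2 family. Each pool was mated in three replicate cultures.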

Variants are written as CDR1, CDR2 and CDR3 of the heavy chain (limits as in the source). Parent: GFTFDDYAMH, GISWNSGSIGYADSVK, VGRGGGYFDY. Values are log10 of the apparent Kd in nM; lower means stronger binding. Where no diploid with the target was found in that replicate, the entry reads "ND": below detection, most likely a poor binder, though not proof of it. Nonspecific signal, from three strains lacking the peptide, appeared in 21% of pairings of library AAYL51, centred on 4.54 (5% of these signals below 3.26); values are not corrected for it. Also given: how often the same scFv was detected with the empty control strains, with their mean in brackets.

CDR-H1,CDR-H2,CDR-H3,"log10 Kd, replicates",signal with controls
GFTFDDYAMH,WPSWNSGSIGYADSVK,VGRGGGYKDY,ND ND ND,0 of 9
GFTFDDYAMH,GIYHHSGSIGYADSVK,VGRGGGYFDY,ND ND ND,0 of 9
GFTFDDEAMH,GISWNSGSIGEADSVK,VGRQGGYFDY,4.78 4.90 5.20,5 of 9 (4.35)
YVTFDDYAMH,GISWNSGSIGYADSVK,VGRGIGYFDY,ND ND ND,0 of 9
GFTFDDYCMH,GISWNSGSIPYADSVK,VGRGGGYFDY,3.09 ND ND,0 of 9
GFTFDDYAMH,GISWISGSIGGADSVK,VGRGGGYIDY,ND 6.06 ND,0 of 9
GFTFDLYAMH,GISWNSGSIGYADSVK,VGRGGGPFDY,ND ND ND,2 of 9 (3.63)
GFTFGDYAMH,GTSWISGSIGYADSVK,VGRGGGYFDY,ND ND 3.35,1 of 9 (4.22)
GFTFDDYAMN,GISWNSGSIGYADSVK,VGRHGGYFDL,3.85 ND 3.55,2 of 9 (4.28)
GFTFDDYDMH,GISWNSGSIGYADSVK,VGRGGGCFDY,ND ND ND,0 of 9
GHTFDVYAMH,GISWNSGSIGYADSVK,VGRGFGYFDY,ND ND ND,0 of 9
GFTFDDYAMH,GISWNSGSIGYADYVK,VGRGGGYLKY,1.25 1.20 0.65,4 of 9 (5.10)
GFTFDDYAMH,GISWNSGSFGYADSVK,VGRGGGYFDC,5.79 ND ND,8 of 9 (5.39)
GFTFDDYAMH,GIEWNSGNIGYADSVK,VERGGGYFDY,ND ND ND,2 of 9 (3.54)
GFTFDDYAMH,GISWNSGSIGYADSVK,VGRNMGYFDL,3.56 ND ND,0 of 9
GFTFDDYYMH,GISWNSGSIGYADSVK,VGRGGEFFDY,4.24 ND ND,4 of 9 (5.12)
GFTFDDYAMH,GISWNSGSIGYADSVM,RGYGGGYFDY,ND ND ND,0 of 9
GFTFDDYAMH,GISWNSGSIGLADSVV,VGRGGGYFSY,ND 3.81 ND,1 of 9 (4.80)
GGTFWDYAMH,GIEWNSGSIGYADSVK,VGRGGGYFDY,ND ND ND,0 of 9

Further variants, results first:

"log10 Kd, replicates",signal with controls,CDR-H1,CDR-H2,CDR-H3
ND ND ND,4 of 9 (4.51),GFTCDDYAMH,GRSWNSGSFGYADSVK,VGRGGGYFDY
4.64 4.07 ND,2 of 9 (3.62),GFTFVDYAMH,GISWNSGSITYADSVK,VGRGPGYFDY
ND 4.00 ND,1 of 9 (4.84),GFTFDDYAMH,GISWNYGSIGYADSVK,VCRGGGYFYY
ND ND ND,1 of 9 (4.73),GFTFDDYAMH,GISWNIGSIGLADSVK,VGRFGGYFDY
ND 5.59 ND,4 of 9 (4.63),GFNFDDYAMH,GMSWNSGSIGYADSVK,VERGGGYFDY
ND ND ND,0 of 9,GFTFDDYASH,GISWNSGSIGYADSVK,VGRGGHYFDL
ND ND ND,1 of 9 (4.20),GKTFDDYAMH,GISWNSGSIGYCDSVK,VGRGGMYFDY
5.76 5.84 3.57,1 of 9 (5.27),GFTFDDYAMH,GISWNSGSIGYADSVK,CGRHGGYFDI
ND 4.27 4.28,3 of 9 (4.57),GFTFDDYAMH,GISWNKGMIGYADSVK,VGRGGGYFGY
ND ND ND,2 of 9 (4.04),GFTFDDYAMH,GASWNSGSIEYAYSVK,VGRGGGYFDY
ND ND ND,0 of 9,GFTFIIYAMH,GISWNSGSIGYADSVK,VGRGGWYFDY
ND 5.44 ND,2 of 9 (4.69),GFTFDLYAML,GISWNSGSIGYADEVK,VGRGGGYFDY
3.92 ND ND,1 of 9 (4.26),GFTFDDYAGH,GIPWNSGSIGYHDSVK,VGRGGGYFDY
ND ND ND,0 of 9,GFTFDDYIMH,GGSWNSGSIGYALSVK,VGRGGGYFDY
4.41 6.42 5.31,3 of 9 (4.85),GFTYDDYAMH,GISWNDGSIGYADSLK,VGRGGGYFDY
6.14 4.70 5.65,5 of 9 (4.89),SFTFFDYAMH,GISWNSGSIGYADSVD,VGRGGGYFDY
5.48 ND ND,4 of 9 (5.49),GFTFDDYAMH,GISWNSGWEFYADSVK,VGRGGGYFDY
ND ND ND,0 of 9,GFTFDDDAMH,GISWNSGMIGYADRVK,VGRGGGYFDY
3.10 ND ND,3 of 9 (3.67),GFDFDDLAMH,GISWNSGSIGYADSVK,VGRGFGYFDY

The opening 3 entries, copied out:

CDR-H1,CDR-H2,CDR-H3,"log10 Kd, replicates",signal with controls
GFTFDDYAMH,WPSWNSGSIGYADSVK,VGRGGGYKDY,ND ND ND,0 of 9
GFTFDDYAMH,GIYHHSGSIGYADSVK,VGRGGGYFDY,ND ND ND,0 of 9
GFTFDDEAMH,GISWNSGSIGEADSVK,VGRQGGYFDY,4.78 4.90 5.20,5 of 9 (4.35)

Parent in this assay: reference entry 1.86, copy in this library 0.88.

Source: Engelhart et al. 2022 (doi:10.1038/s41597-022-01779-4), MIT Lincoln Laboratory and A-Alpha Bio; data file from the FLAb repository.